The values below come from publication PMC8021898 (Frontiers in Pharmacology, 2021).

The assay has as its system human H1, H2, H3, and H4 receptors. To be noted: over the range of clinical steady state famotidine drug levels.

For `NC(N)=Nc1nc(CSCCC(N)=NS(N)(=O)=O)cs1` [Famotidine], the “specificity among histamine receptors” value is “specific for H2”.
